Reference: PubChem BioAssay AID504690 (Sanford-Burnham Center for Chemical Genomics, 2011)
Only a part is listed here, and it is no random draw. Activity calls are given as the source filed them.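 The calls were made as follows: active = inhibition reaching at least a set limit at 20 µM in the primary screen (cut at about 59% in these data); inactive = the rest.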

Tested on: glucose-6-phosphate dehydrogenase-6-phosphogluconolactonase (Plasmodium falciparum 3D7)
Test: inhibition of malaria parasite G6PD (PfGluPho) – biochemical, fluorescence intensity, uHTS, primary screen (AID 504690);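 also: 0% = DMSO wells with substrate and 100% = DMSO wells lacking glucose-6-phosphate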
Details: PfGluPho enzyme, NADPH resazurin-diaphorase fluorescence; at 20 µM; active compounds read high

Row | SMILES | inhibition
1 | CCC(=O)N(c1ccccc1)C1(COC)CCN(CCc2cccs2)CC1 | inactive: 4.72%
2 | CCC(=O)N(c1ccccc1)C1(COC)CCN(CCn2nnn(CC)c2=O)CC1 | inactive: 17.1%
